# Test system: phenyl-p-benzoquinone writhing
# Experiment: Phenylquinone Writhing (PQW), analgesic
# Type: in vivo, mouse
# Details: analgesic vs sedative dose
row,Compound,separation of analgesic activity from sedative activity (difference in dose) [fold]
1,"c1ccc(N2c3ccccc3[C@@H]3CNCC[C@H]32)cc1 (single isomer, unassigned)",10

# Same assay, conditions: mice
Compound,analgesic potency relative to aspirin [times],analgesic potency relative to codeine
"c1ccc(N2c3ccccc3[C@@H]3CNCC[C@H]32)cc1 (single isomer, unassigned)",100,about 20 times

# Same assay, conditions: mice, comparison table
row,Compound,Analgesic Dose (mice) [mg/kg]
1,"c1ccc(N2c3ccccc3[C@@H]3CNCC[C@H]32)cc1 (single isomer, unassigned)",1

# Same assay, conditions: po, mouse
row,Compound,PQW mouse ED50 [mg/kg]
1,C#CCN1CC[C@@H]2[C@@H](C1)c1ccccc1N2c1ccccc1 (relative stereo),3
2,CN1CC[C@@H]2[C@@H](C1)c1ccccc1N2c1ccccc1.Cl,4
3,"c1ccc(N2c3ccccc3[C@@H]3CNCC[C@H]32)cc1 (single isomer, unassigned)",0.9
4,c1ccc(N2c3ccccc3[C@@H]3CN(C4CC4)CC[C@H]32)cc1 (relative stereo),21
5,"c1ccc(N2c3ccccc3[C@@H]3CN(CC4CCC4)CC[C@H]32)cc1 [compound of Example 2, (+)-trans-2-(cyclobutylmethyl)-2,3,4,4a,5,9b-hexahydro-5-phenyl-1H-pyrido[4,3-b]indole]",2
6,CCN1CC[C@@H]2[C@@H](C1)c1ccccc1N2c1ccccc1.Cl (racemic),1
7,Brc1ccc(N2c3ccc(Br)cc3[C@@H]3CNCC[C@H]32)cc1.Cl (racemic),19
8,CN1CC[C@@H]2[C@@H](C1)c1ccccc1N2c1cccc(C(F)(F)F)c1 (relative stereo),24
9,CN1CC[C@@H]2[C@@H](C1)c1cc(Br)ccc1N2c1ccc(Br)cc1.Cl (racemic),2.5
10,CC(C)CN1CC[C@@H]2[C@@H](C1)c1ccccc1N2c1ccccc1 (racemic),4
11,CC(C)(C)N1CC[C@@H]2[C@@H](C1)c1ccccc1N2c1ccccc1.Cl (racemic),40
12,CC(C)(C)CN1CC[C@@H]2[C@@H](C1)c1ccccc1N2c1ccccc1.Cl (racemic),13
13,c1ccc(N2c3ccccc3[C@@H]3CN(CC4CC4)CC[C@H]32)cc1 (relative stereo),3
14,CC(C)N1CC[C@@H]2[C@@H](C1)c1ccccc1N2c1ccccc1.Cl (racemic),2.6
15,c1ccc(N2c3ccccc3[C@@H]3CN(C4CCCC4)CC[C@H]32)cc1 (relative stereo),7.7
16,C=CCN1CC[C@@H]2[C@@H](C1)c1ccccc1N2c1ccccc1 (racemic),4

# From patent US3991199A, “Pyridoindoles” (Endo Laboratories, Inc., priority 1974, dated 1976)
